Screens (PubChem)
Nrf2 ARE act: Nrf2 pathway activation | hit rate 0.31% among 410,000 | AREc32 ARE-luciferase reporter (MCF7-derived line), luminescence, 24 h | Potency, µM (top dose mostly 46.1 µM), inactives show top-dose activation, actives largely listed as activators | AID 624171; further: potency means the concentration at half of the fitted maximal effect; % of control where 0% means no effect; nearly all actives have a fitted effect of over 65% in size
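AREc32_Fluc, 1000 cells/well, OPTI-MEM + 5% FBS, o/n 37 deg C 5% CO2; 23 nL cpd by pin tool, 24 hr; Steady-Glo 30 min RT, luminescence.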
Mito fusion yeast: blocks mitochondrial division or promotes mitochondrial fusion | hit rate 0.23% among 320,000 | S. cerevisiae fusion-defective mutant growth rescue, CellTiterGlo 48 h | Potency, µM (highest dose often 46.1 µM), for inactives: top-dose growth rescue (activation), actives largely listed as activators | AID 485298; further: potency means the concentration at half of the fitted maximal effect; % of control where 0% means no effect; nearly all actives have a fitted effect of over 45% in size
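Temperature-sensitive fusion-defective S. cerevisiae (e.g. fzo1-1, mgm1-5) were grown with compound in YPEG medium (3% ethanol, 3% glycerol) for 48 hours at 37C. Growth rescue was measured as viability by CellTiterGlo luminescence after 10 minutes at ambient.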
miR-21 reporter: miR-21 reporter, rising signal; HeLa miR-21 FLuc reporter, luciferase, 48 h; Potency, µM (top dose mostly 38.3 µM), without a hit: at the top dose reporter change, positive = more light; 340,000 tested, under 10 active; active = well fitted rising curve with a large enough effect; inconclusive = small, poorly fitted or top-dose-only effect; inactive = no such curve, though single readings can be large or run the other way;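 note: % of control where 0% means no effect; miR-21 action dims this reporter so a rising signal means less miR-21 action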
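HeLa cells stably expressing CMV-driven firefly luciferase with a downstream miR-21 binding sequence, endogenously expressing miR-21, were treated with titrations (up to about 40uM final) for 48 hours at 37 degree Celsius. Luciferase luminescence was read after lysis.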
Nrf2 block: Nrf2 pathway inhibition | A549 ARE-Fluc reporter, luciferase luminescence, 18-24 h | hit rate 2.1% among 360,000 | Potency, µM (titrated, usually from 46 µM), inactives show at the highest dose activity change, negative = inhibition, most hits filed as inhibitors; further: potency means the concentration at half of the fitted maximal effect; on the % scale 0 is the no-effect control and ±100 the full control effect; nearly all actives have a fitted effect of over 60% in size
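Cells were seeded and rested 2 h, then exposed to compounds for 18-24 h. CellTiter-Fluor was read first as a viability measure. BugLite was added 15 min before the final luminescent read of ARE-luciferase activity in A549 cells.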
A549 tox: A549 cytotoxicity, counter-screen for Nrf2 inhibitors | hit rate 0.16% among 390,000 | A549 ARE-Fluc cells, CellTiter-Fluor viability, 18-24 h | Potency, µM (top dose mostly 46 µM), for inactives: at the top dose activity change, negative = cytotoxicity, usual class: inhibitors; further: potency means the concentration at half of the fitted maximal effect; on the % scale 0 is the no-effect control and ±100 the full control effect
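Cytotoxicity counterscreen: CellTiter-Fluor fluorescence was measured in A549 ARE_Fluc cells after 18-24 h of compound exposure in a concentration series. The subsequent BugLite luminescent read reports ARE-luciferase activity.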
Active calls of the source: *; ? = inconclusive; . = not tested or not shown; ! = a repeat was not active; [ ] = remark or other dose. This is a sample that favours compounds with a hit; in the whole collection about 2.3% have one here. Unless noted, the call rests on the fitted dose curve; in most records, active means well fitted curve in the direction sought with a large enough effect; inconclusive means small, poorly fitted or top-dose-only effect, or another doubt; inactive means no such curve, though single readings can be large; an effect the other way counts as inactive or inconclusive.

SMILES | Nrf2 ARE act | miR-21 reporter | Mito fusion yeast | A549 tox | Nrf2 block
CCOc1ccccc1NC(=O)C(Cc1ccccc1)NS(=O)(=O)c1ccc(Br)s1 (stereo unspecified) | 0.0% | ? | . | -10.5% | 18.4µM*
Cc1ccc(CNC(=O)C(Cc2ccccc2)NS(=O)(=O)c2ccc(Br)s2)cc1 (stereo unspecified) | 0.7% | 11.1% | 17.8µM* | ? | ?
Cc1ccc(NC(=O)C2CC(=O)N/C(=N/N=C/c3ccco3)S2)cc1 (stereo unspecified) | ? | -1.8% | -7.4% | -5.1% | -5.0%
O=C1CC(C(=O)Nc2ccc(F)cc2)S/C(=N\N=C\c2ccco2)N1 (stereo unspecified) | 11.2µM* | 4.3% | 10.2% | -3.8% | -4.9%
Cn1c(SCc2cccc(F)c2)nc2c([nH]c3ccccc32)c1=O | 1.0% | -2.9% | . | 7.2% | .
CCCCc1ccc(C2C3=C(CC(C)(C)CC3=O)NC3=C2C(=O)c2ccccc23)cc1 (stereo unspecified) | 0.5% | -4.7% | -0.5% | ? | ?
CCCc1ccc(C2C3=C(CC(C)(C)CC3=O)NC3=C2C(=O)c2ccccc23)cc1 (stereo unspecified) | 0.4% | ? | 6.6% | ? | 8.2µM*
COc1cnc(-c2ccccn2)nc1NC(C)C | 3.3% | 19.1% | 3.3% | ? | 14.6µM*
COc1ccccc1Sc1nc(-c2ccccn2)ncc1OC | 0.5%[9.22 µM] | ? | 12.6% | -6.9% | ?
CCOCCOC(=O)c1[nH]c2c(c1C)C(=O)CC(c1ccccc1)C2 (stereo unspecified) | 1.0% | 17.2% | 7.5% | -13.2% | ?
CCOCCOC(=O)c1[nH]c2c(c1C)C(=O)CC(c1cc(OC)c(OC)c(OC)c1)C2 (stereo unspecified) | 0.9% | 28.1% | 0.3% | -7.8% | 23.1µM*
CCOC(=O)c1[nH]c2c(c1-c1ccccc1)C(=O)CC(c1ccc(OC)c(OC)c1)C2 (stereo unspecified) | 0.5% | 1.7% | 0.3% | 0.3% | 20.6µM*
Cc1cccc(Cn2c(=O)n3nc(-c4ccccc4)nc3c3ccccc32)c1 | -0.5% | 25.6% | . | -6.0% | 14.6µM*
COc1c(N2CCN(C(=S)NCc3ccccc3)C(C)C2)c(F)cc2c(=O)c(C(=O)O)cn(C3CC3)c12 (stereo unspecified) | -0.1% | ? | -1.7% | ? | 23.1µM*
COc1c(N2CCN[C@H](C)C2)c(F)cc2c(=O)c(C(=O)O)cn(C3CC3)c12 | -1.1% | 0.9% | 0.1% | -3.3% | 10.5%
Cc1sc(NC(=O)c2ccco2)c(C(c2cccnc2)N2CCN(CCO)CC2)c1C (stereo unspecified) | 2.1% | 3.9% | 4.0% | 10.0% | 2.4%
Cc1sc(NC(=O)c2ccco2)c(C(c2cccnc2)N2CCN(c3ccc(F)cc3)CC2)c1C (stereo unspecified) | -0.9% | 24.6% | -33.5% | -11.5% | 14.6µM*
CCOC(=O)C1CCN(C(c2cccnc2)c2c(NC(=O)c3ccco3)sc(C)c2C)CC1 (stereo unspecified) | 6.2% | 23.0% | -12.8% | -13.6% | 14.6µM*
CCNC(=O)Nc1cc(S(=O)(=O)Nc2ccc(OC)cc2)ccc1N1CCOCC1 | 0.5% | . | -13.1% | -15.3% | 4.11µM*
Nc1cc(S(=O)(=O)Nc2ccc(Cl)cc2)ccc1N1CCOCC1 | 0.4% | 18.7% | 6.7% | -9.4% | 16.4µM*
CCCCNC(=O)c1ccc(N2CCOCC2)c(NS(=O)(=O)c2ccc(OC)cc2)c1 | -0.2% | 10.1% | 2.2% | 5.8% | ?
COc1ccc(-c2noc(N3CCN(c4cccc(Cl)c4)CC3)n2)cc1OC | 0.2% | 2.3% | . | -5.2% | 23.1µM*
COc1ccc(S(=O)(=O)Cc2ccc(C(=O)NC3CC3)o2)cc1 | -1.0% | -1.0% | -1.1% | -7.4% | 1.3%
Cc1ccccc1S(=O)(=O)Cc1ccc(C(=O)NC2CC2)o1 | 0.1% | -1.5% | -3.6% | ? | 20.6µM*
COc1ccc(S(=O)(=O)Cc2ccc(C(=O)NC3CCCCC3)o2)cc1 | 0.0% | -0.8% | -1.0% | 0.5% | 14.6µM*!
COc1cccc(-c2nnc(NC(=O)c3ccc(Cl)s3)o2)c1 | 2.8% | -15.2% | 3.55µM* | -9.2% | -11.8%
Cc1ccc(NC(=O)CN2C(=O)COc3ccc(S(=O)(=O)NC4CCCC4)cc32)cc1Cl | 6.1% | 6.4% | . | 0.4% | ?
Cn1c2ccsc2c2cnn(Cc3ccccc3F)c(=O)c21 | . | . | . | -4.6% | 17.6%
Cc1c(Cl)cccc1NC(=O)Nc1nnc(N(C)C2CCCCC2)s1 | -0.2% | 20.8% | . | -1.5% | 18.4µM*
Cc1ccc(NC(=O)Nc2nnc(N(C)C3CCCCC3)s2)c(Cl)c1 | 0.4% | 0.4% | . | 3.9% | -4.9%

Record cards, as listed above. Values in the order: Nrf2 ARE act, miR-21 reporter, Mito fusion yeast, A549 tox, Nrf2 block
Record of CCOC(=O)C1CCN(C(c2cccnc2)c2c(NC(=O)c3ccco3)sc(C)c2C)CC1 (stereo unspecified) : 6.2%, 23.0%, -12.8%, -13.6%, 14.6µM*
Record of COc1ccc(S(=O)(=O)Cc2ccc(C(=O)NC3CCCCC3)o2)cc1 : 0.0%, -0.8%, -1.0%, 0.5%, 14.6µM*!
Record of CCOCCOC(=O)c1[nH]c2c(c1C)C(=O)CC(c1ccccc1)C2 (stereo unspecified) : 1.0%, 17.2%, 7.5%, -13.2%, ?
Record of Cc1c(Cl)cccc1NC(=O)Nc1nnc(N(C)C2CCCCC2)s1 : -0.2%, 20.8%, ., -1.5%, 18.4µM*

(continued)
SMILES | Nrf2 ARE act | miR-21 reporter | Mito fusion yeast | A549 tox | Nrf2 block
COc1ccc(C2Nc3ccccc3C(=O)N2Cc2cccc3ccccc23)cc1COc1ccc(NC(C)=O)cc1 (stereo unspecified) | . | . | . | -1.3% | ?
O=S(=O)(c1ccc(C(F)(F)F)cc1)N1CCN(S(=O)(=O)c2ccc3c(c2)OCCO3)CC1 | . | . | . | -2.6% | -14.7%
CN(c1ccccc1)S(=O)(=O)c1cccc(NC(=O)c2nn(C)c(=O)c3ccccc23)c1 | 2.0% | . | ? | -2.0% | 23.1µM*
COc1cccc(CN(C)CC(=O)Nc2cccc(S(=O)(=O)N(C)c3ccccc3)c2)c1OC | -0.4% | . | . | 0.0% | ?
CN(C)S(=O)(=O)c1cccc(NC(=O)CSc2nc3ccccc3[nH]2)c1 | -0.1% | 15.1% | 0.2% | -17.9% | 20.6µM*
CN(C)S(=O)(=O)c1cccc(NC(=O)Cc2ccc(-c3ccccc3)cc2)c1 | 3.4% | 0.2% | 6.9% | ? | 13µM*
COc1cc(CC(=O)Nc2cccc(S(=O)(=O)N(C)c3ccccc3)c2)cc(OC)c1OC | 5.3% | . | . | ? | 14.6µM*
CC(NC(=O)C1CCN(S(=O)(=O)c2ccc(F)cc2)CC1)c1ccccc1 (stereo unspecified) | -1.0% | -6.3% | . | 4.0% | 2.6%
COc1ccc(C(=O)N2CCC(c3ccncc3)CC2)cc1OC | 0.1% | -0.4% | . | -11.6% | .
C[n+]1ccc(/C=N/Nc2nc(Cl)c(C#N)c(Cl)c2Cl)cc1 | 12.6µM* | 13.3% | 6.9% | 22.5% | -9.4%
COc1cc2ccccc2nn1 | 0.0% | -9.3% | -3.7% | ? | 3.6%
COc1ccc2c(n1)Sc1nc3ccccc3nc1N2 | 4.47µM* | -54.4% | 9.6% | 0.5% | ?
CCOC(=O)c1[nH]c2c(c1Cc1ccccc1)C(=O)CC(c1ccc(Cl)cc1)C2 (stereo unspecified) | 0.6% | 16.2% | . | 0.1% | ?
O=C(CN1C(=O)S/C(=C\c2ccccc2)C1=O)NNC(=O)c1ccccc1O | 5.0% | -6.4% | 2.1% | 5.4% | 29.8%
CN1CCN(C(=O)CCN2C(=O)/C(=C/c3ccccc3Cl)SC2=S)CC1 | ? | 18.4% | 3.9% | 20.6µM* | ?
